In test [1] the target is glutathione S-transferase (GST)-fused full-length human Syk protein (Homo sapiens, UniProt P43405). The test is described as follows: Syk enzyme assay. The protocol: A glutathione S-transferase (GST)-fused full-length human Syk protein (Carna Biosciences), which had been generated using a Baculovirus expression system, was used in the Syk enzyme assay.
15 μl of a reaction solution (1.2 ng Syk, 20 mM HEPES, 10 mM MgCl2, 50 mM NaCl, 2 mM DTT, 0.05% BSA, pH 7.0) containing a Syk protein and a predetermined concentration of a test compound was shaken for 2 minutes, and it was then left at rest at room temperature for 13 minutes. Thereafter, 5 μl of Biotin-EDPDYEWPSA-NH2 (final concentration: 0.4 μM) serving as a substrate peptide and 5 μl of ATP (final concentration: 27 μM) were added to the reaction solution, and the obtained mixture was then shaken for 2 minutes. The reaction solution was further left at rest at room temperature for 40 minutes, so as to carry out an enzyme reaction.
Thereafter, 50 μl of a reaction termination solution [5 μg/ml Streptavidin, 0.18 μg/ml PT66-K, 30 mM HEPES (pH 7.0), 150 mM KF, 75 mM EDTA, 0.15% BSA, 0.075% Tween20], which contained Streptavidin-Xlent (Cisbio) and Mab PT66-K (Cisbio), was added to the reaction solution to terminate the enzyme reaction. At the same time, the reaction solution was left at rest at room temperature for 1 hour, so as to carry out an antigen-antibody reaction. Thereafter, using EnVision (PerkinElmer), the time-resolved fluorescence was measured at 615 nm and 665 nm, so that the phosphorylation of the substrate peptide was measured.
In addition, the following are standards for evaluating IC50 of Syk-inhibitory activity used in Table 21. • A: Up to 10 nM • B: 10 to 50 nM • C: 50 to 100 nM • D: 100 to 1000 nM The set of numbers (XYZ-xyz) given in each Example number column indicates the corresponding Example number (Example XYZ-xyz) in Table 21.

Test [2] concerns THP-1 cells. The test is described as follows: Antibody-dependent phagocytosis assay. The note with it: read-out: IC50 upon phagocytosis inhibition, THP-1 cells induced to differentiate with IFNγ, opsonized Escherichia coli, Table 23. The protocol: THP-1 cells (2×10^5 cells/ml) which are human monocyte-like cell line were cultured in the presence of 10 ng/ml IFNγ for 2 days, so that the cells were induced to differentiate into macrophage-like cells. THP-1 cells that had been induced to differentiate were collected. The cells (5×10^4 cells/well) were reacted with test compounds having given concentrations at room temperature for 30 minutes. Thereafter, Escherichia coli (Life Technologies) labeled with a pH-sensitive dye (pHrodo) was subjected to opsonization using an anti-Escherichia coli antibody (Molecular Probes). Then, the resultant was added to THP-1 cells mixed with test compounds that had been induced to differentiate, followed by incubation at 37° C. for 3 hours. At the time of addition of opsonized Escherichia coli, cell-permeable fluorescent dye (Calcein AM) were simultaneously added thereto, and phagocytosis of opsonized Escherichia coli in viable cells was quantitatively determined using an IN Cell Analyzer.
In addition, the following are used in Table 23 to denote standards for evaluating IC50 upon phagocytosis inhibition. • A: Up to 1 μM • B: 1 to 3 μM • C: 3 to 6 μM

Test [3] has as its system THP-1 cells. As to the kind of experiment: TNFα generation assay. The format is cell-based, human. The protocol: THP-1 cells (2×10^5 cells/ml), which were human monocytoid cells, were cultured in the presence of 10 ng/ml IFN-γ (Roche) for 2 days, so that the cells were induced to differentiate into macrophage-like cells. The differentiation-induced THP-1 cells were recovered, and the cells (1×10^6 cell/ml) were then allowed to react with a predetermined concentration of test compound at room temperature for 30 minutes. On the other hand, 100 μl of human IgG (10 μg/ml, SIGMA-ALDRICH) diluted with PBS was added to a 96-well plate, and it was then incubated at room temperature overnight. Thereafter, the resultant was washed with PBS twice to produce a human IgG-coated plate. Subsequently, a cell solution that contained a compound was inoculated on the human IgG-coated plate (5×10^4 cells/well), and it was then cultured for 7 hours. Thereafter, the cultured solution was recovered, and the amount of TNFα secreted into the culture solution was then measured by the ELISA method (Roche/R & D Systems) or the AlphaLISA method (PerkinElmer).
In addition, the following are used in Table 22 to denote criteria for evaluating IC50 in TNFα generation assay. • A: Up to 65 nM • B: 65 to 130 nM • C: 130 to 200 nM

Setting [4] is: read-out: IC50 of Syk-inhibitory activity, Test Example 1.
The mark [5] stands for this setting: read-out: IC50 of Syk-inhibitory activity, Test Example 1, tested form: HCl.
[6] abbreviates: read-out: IC50 in TNFα generation assay, Table 22, tested form: HCl.
Where [7] appears, read: read-out: IC50 in TNFα generation assay, Table 22.

Like-named read-outs stand apart in the source and are kept apart here. Where only a bound is given, the exact number is not on record here.

In the case of `COc1cc(Nc2nc(N[C@@H]3CCCC[C@@H]3N)c(F)cc2C(N)=O)cc(OC)c1`, the IC50 in test [1] (setting [4]) was below 10 nM; in the test on THP-1 cells [2] it was below 1000 nM.

`NC(=O)c1cc(F)c(N[C@@H]2CCCC[C@@H]2N)nc1Nc1cc(Cl)cc(Cl)c1`: the IC50 in test [1] (setting [4]) is below 10 nM; in the test with THP-1 cells [2], 3000 to 6000 nM.

Take `COc1cc(Nc2nc(N[C@@H]3CCCC[C@@H]3N)c(F)cc2C(N)=O)cc(OC)c1` (relative stereo): the values for the IC50 (in test [1] (setting [5]); with THP-1 cells [2] (tested form: HCl)) were below 10 nM and 1000 to 3000 nM, respectively.

As for `Cc1ccc2cc(Nc3nc(N[C@@H]4CCCC[C@@H]4N)c(F)cc3C(N)=O)ccc2n1` (relative stereo), the IC50 in test [1] (setting [5]) is below 10 nM; in the test on THP-1 cells [3] (setting [6]) it was 65 to 130 nM.

Take `Cc1cnc2cc(Nc3nc(N[C@@H]4CCCC[C@@H]4N)c(F)cc3C(N)=O)ccc2n1` (relative stereo): the IC50 is below 10 nM in test [1] (setting [5]) and below 65 nM in the test on THP-1 cells [3] (setting [6]).

Regarding `Cc1nc2ccc(Nc3nc(N[C@@H]4CCCC[C@@H]4N)c(F)cc3C(N)=O)cc2s1` (relative stereo), the IC50 in test [1] (setting [4]) is below 10 nM; in the test with THP-1 cells [2], 1000 to 3000 nM.

Turning to `Cc1nn(C)c2ncc(Nc3nc(N[C@@H]4CCCC[C@@H]4N)c(F)cc3C(N)=O)cc12` (relative stereo), the IC50 in test [1] (setting [4]) was in the range of 10 to 50 nM; in the test on THP-1 cells [2] it was 3000 to 6000 nM; in the test with THP-1 cells [3] (setting [7]) it was 65 to 130 nM.

Consider `Cn1cnc2cc(Nc3nc(N[C@@H]4CCCC[C@@H]4N)c(F)cc3C(N)=O)ccc21` (relative stereo), for which the IC50 in test [1] (setting [5]) was below 10 nM; in the test on THP-1 cells [3] (setting [6]), 65 to 130 nM.

As to `Cn1ncc2c(Nc3nc(N[C@@H]4CCCC[C@@H]4N)c(F)cc3C(N)=O)cccc21` (relative stereo), the IC50 is below 10 nM in test [1] (setting [5]) and below 65 nM in the test with THP-1 cells [3] (setting [6]).

With `Cn1ncc2cc(Nc3nc(N[C@@H]4CCCC[C@@H]4N)c(F)cc3C(N)=O)ccc21` (relative stereo), the values for the IC50 (in test [1] (setting [4]); with THP-1 cells [2]; in the test on THP-1 cells [3] (setting [7])) were below 10 nM, 1000 to 3000 nM and below 65 nM, respectively.

Regarding `Cn1ncc2ccc(Nc3nc(N[C@@H]4CCCC[C@@H]4N)c(F)cc3C(N)=O)cc21` (relative stereo), the values for the IC50 (in test [1] (setting [5]); in the test on THP-1 cells [3] (setting [6])) were below 10 nM and below 65 nM, respectively.

As for `NC(=O)c1cc(F)c(N[C@@H]2CCCC[C@@H]2N)nc1Nc1ccc2[nH]ncc2c1` (relative stereo), the IC50 is below 10 nM in test [1] (setting [5]), 1000 to 3000 nM in the test with THP-1 cells [2] (tested form: HCl) and 65 to 130 nM with THP-1 cells [3] (setting [6]).

Consider `NC(=O)c1cc(F)c(N[C@@H]2CCCC[C@@H]2N)nc1Nc1ccc2c(c1)OCO2` (relative stereo), for which the figures for the IC50 (in test [1] (setting [4]); in the test with THP-1 cells [2]) were below 10 nM and 1000 to 3000 nM, respectively.

As to `NC(=O)c1cc(F)c(N[C@@H]2CCCC[C@@H]2N)nc1Nc1ccc2c(cnn2CCN2CCCC2)c1` (relative stereo), the results for the IC50 (in test [1] (setting [5]); in the test with THP-1 cells [3] (setting [6])) were below 10 nM and 65 to 130 nM, respectively.

With `NC(=O)c1cc(F)c(N[C@@H]2CCCC[C@@H]2N)nc1Nc1ccc2cccnc2c1` (relative stereo), the IC50 in test [1] (setting [5]) is 10 to 50 nM; in the test on THP-1 cells [3] (setting [6]), below 65 nM.

Consider `NC(=O)c1cc(F)c(N[C@@H]2CCCC[C@@H]2N)nc1Nc1ccc2ncsc2c1` (relative stereo), for which the IC50 in test [1] (setting [5]) was below 10 nM; in the test with THP-1 cells [3] (setting [6]), below 65 nM.

For the molecule `NC(=O)c1cc(F)c(N[C@@H]2CCCC[C@@H]2N)nc1Nc1ccc2nn(CCN3CCCC3)cc2c1` (relative stereo), the values for the IC50 (in test [1] (setting [5]); in the test on THP-1 cells [3] (setting [6])) were below 10 nM and 65 to 130 nM, respectively.

Consider `NC(=O)c1cc(F)c(N[C@@H]2CCCC[C@@H]2N)nc1Nc1cccc(-n2nccn2)c1` (relative stereo), for which the IC50 is below 10 nM in test [1] (setting [4]) and 1000 to 3000 nM in the test with THP-1 cells [2].

As for `NC(=O)c1cc(F)c(N[C@@H]2CCCC[C@@H]2N)nc1Nc1cccc2ncccc12` (relative stereo), the IC50 is below 10 nM in test [1] (setting [4]) and 1000 to 3000 nM with THP-1 cells [2].

For the molecule `Cc1cncc(Nc2nc(N[C@@H]3CCCC[C@@H]3N)c(F)cc2C(N)=O)c1` (relative stereo) [Example 6-49, 6-(cis-2-aminocyclohexylamino)-5-fluoro-2-(5-methylpyridin-3-ylamino)nicotinamide], the values for the IC50 (in test [1] (setting [4]); with THP-1 cells [2]) were below 10 nM and 3000 to 6000 nM, respectively.

For the molecule `Cc1nc2ccc(Nc3nc(NCCN)c(F)cc3C(N)=O)cc2s1` [Example 6-21, 6-((2-aminoethyl)amino)-5-fluoro-2-((2-methylbenzo[d]thiazol-6-yl)amino)nicotinamide], the IC50 in test [1] (setting [5]) lay in the range of 10 to 50 nM; in the test with THP-1 cells [2] (tested form: HCl), 1000 to 3000 nM.

Turning to `NCCNc1nc(Nc2ccc3ncccc3c2)c(C(N)=O)cc1F` [Example 6-26, 6-((2-aminoethyl)amino)-5-fluoro-2-(quinolin-6-ylamino)nicotinamide], the IC50 was below 10 nM in test [1] (setting [5]) and below 65 nM in the test with THP-1 cells [3] (setting [6]).

In the case of `NCCNc1nc(Nc2ccc3ncsc3c2)c(C(N)=O)cc1F` [Example 6-44, 6-(2-aminoethylamino)-2-((benzo[d]thiazol-6-yl)amino)-5-fluoro-nicotinamide], the IC50 is 10 to 50 nM in test [1] (read-out: IC50 of Syk-inhibitory activity, Test Example 1, tested form: TFA salt) and below 65 nM with THP-1 cells [3] (read-out: IC50 in TNFα generation assay, Table 22, tested form: TFA salt).

Turning to `NCCNc1nc(Nc2cnc3ccccc3c2)c(C(N)=O)cc1F` [Example 8-11, 6-(2-aminoethylamino)-5-fluoro-2-(quinolin-3-ylamino)nicotinamide], the figures for the IC50 (in test [1] (setting [5]); with THP-1 cells [3] (setting [6])) were 10 to 50 nM and 65 to 130 nM, respectively.

As to `CC(C)C[C@H](N)CNc1nc(Nc2ccc3ncccc3c2)c(C(N)=O)cc1F` [Example 14-10, 6-(((2S)-2-amino-4-methylpentyl)amino)-5-fluoro-2-(quinolin-6-ylamino)nicotinamide], the figures for the IC50 (in test [1] (setting [5]); in the test with THP-1 cells [3] (setting [6])) were 10 to 50 nM and 65 to 130 nM, respectively.

Source of the values: patent US8895585B2, “Nicotinamide derivative or salt thereof” (FUJIFILM Corporation, priority 2010, dated 2014).
